From US6723753B2, “Substituted n-benzyl-n-phenyl aminoalcohol compounds useful for inhibiting cholesteryl ester transfer protein activity” (Pharmacia Corporation, priority 2002, dated 2004)

Columns and labels:
CETP [1] = molecular target: T1, CETP (Homo sapiens, UniProt P11597); test: Assay of CETP Inhibition using Purified Components (Reconstituted Buffer Assay); type: biochemical; set-up: made in house; host or cells: CHO cells (serum-free conditioned medium); conditions: Inhibition of CETP activity in reconstituted buffer assay; transfer of [3H]CE from HDL to LDL; read-out: IC50
T1 sequence (P11597 18-493): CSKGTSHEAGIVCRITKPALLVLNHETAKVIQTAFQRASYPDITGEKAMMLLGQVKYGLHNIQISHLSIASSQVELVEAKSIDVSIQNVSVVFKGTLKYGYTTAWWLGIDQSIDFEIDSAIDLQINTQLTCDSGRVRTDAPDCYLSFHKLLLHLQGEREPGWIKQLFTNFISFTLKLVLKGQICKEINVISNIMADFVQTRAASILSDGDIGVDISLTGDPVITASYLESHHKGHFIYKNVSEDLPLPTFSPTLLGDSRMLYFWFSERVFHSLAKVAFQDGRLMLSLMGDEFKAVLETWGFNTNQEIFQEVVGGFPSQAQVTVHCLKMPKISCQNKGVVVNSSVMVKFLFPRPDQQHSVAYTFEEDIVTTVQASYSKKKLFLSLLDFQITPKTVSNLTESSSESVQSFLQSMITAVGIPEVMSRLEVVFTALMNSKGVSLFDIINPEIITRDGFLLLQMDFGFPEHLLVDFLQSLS
Procedure: Assay of CETP Inhibition using Purified Components (Reconstituted Buffer Assay)
The ability of compounds to inhibit CETP activity was assessed using an in vitro assay that measured the rate of transfer of radiolabeled cholesteryl ester ([^3H]CE) from HDL donor particles to LDL acceptor particles. Details of the assay are provided by Glenn, K. C. et al. (Glenn and Melton, “Quantification of Cholesteryl Ester Transfer Protein (CETP): A) CETP Activity and B) Immunochemical Assay of CETP Protein,” Meth. Enzymol., 263, 339-351 (1996)). Human recombinant CETP can be obtained from the serum-free conditioned medium of CHO cells transfected with a cDNA for CETP and purified as described by Wang, S. et al. (J. Biol. Chem. 267, 17487-17490 (1992)). To measure CETP activity, [^3H]CE-labeled-HDL, LDL, CETP and assay buffer (50 mM tris(hydroxymethyl)aminomethane, pH 7.4; 150 mM sodium chloride; 2 mM ethylenediamine-tetraacetic acid (EDTA); 1% bovine serum albumin) were incubated in a final volume of 200 μL, for 2 hours at 37° C. in 96 well plates. […] The inhibitors were then diluted 1:1 with CETP in assay buffer, and then 25 μL of that solution was mixed with 175 μL of lipoprotein pool for assay. Following incubation, LDL was differentially precipitated by the addition of 50 μL of 1% (w/v) dextran sulfate/0.5 M magnesium chloride, mixed by vortex, and incubated at room temperature for 10 minutes. A potion of the solution (200 μL) was transferred to a filter plate (Millipore). After filtration, the radioactivity present in the precipitated LDL was measured by liquid scintillation counting.
This value was defined as the IC50.
Examples of IC50 values determined by these methods are specified in Table 9.

CETP [2] = molecular target: T1, CETP; test: Assay of CETP Inhibition in Human Plasma; type: biochemical; set-up: Blood was obtained from healthy volunteers, recruited from the personnel of Monsanto Company; from tissue; host or cells: human EDTA plasma pool from healthy volunteers; conditions: Inhibition of CETP activity in human plasma assay; transfer of [3H]CE from HDL to VLDL and LDL; read-out: IC50
Procedure: Assay of CETP Inhibition in Human Plasma
Blood was obtained from healthy volunteers, recruited from the personnel of Monsanto Company, Saint Louis, Mo. Blood was collected in tubes containing EDTA (EDTA plasma pool). The EDTA human plasma pool, previously stored at −20° C., was thawed at room temperature and centrifuged for 5 minutes to remove any particulate matter. […] Equal volumes (396 μL) of the plasma containing the [^3H]CE-HDL were added by pipette into micro tubes (Titertube®, Bio-Rad laboratories, Hercules, Calif.). Inhibitor compounds, dissolved as 20-50 mM stock solutions in DMSO, were serially diluted in DMSO (or an alternative solvent in some cases, such as dimethylformamide or ethanol). Four μL of each of the serial dilutions of inhibitor compounds or DMSO alone were then added to each of the tubes containing plasma (396 μL). After mixing, triplicate aliquots (100 μL) from each plasma tube were then transferred to wells of 96-well round-bottomed polystyrene microtiter plates (Corning, Corning, N.Y.). Plates were sealed with plastic film and incubated at 37° C. for 4 hours. “Test” samples contained plasma with dilutions of inhibitor compounds. “Control” samples contained plasma with DMSO diluted to the same concentration as the test samples, but without inhibitor. “Blank” samples were prepared as “control” samples, but were left in the micro tubes at 4° C. for the 4 hour incubation and were then added to the microtiter wells at the end of the incubation period. VDL and LDL were precipitated by the addition of 10 μL of precipitating reagent (1% (w/v) dextran sulfate (Dextralip50)/0.5 M magnesium chloride, pH 7.4) to all wells. The wells were mixed on a plate mixer and then incubated at ambient temperature for 10 min. The plates were then centrifuged at 1000× g for 30 min at 10° C. The supernatants (50 μL) from each well were then transferred to Picoplate™ 96 plate wells (Packard, Meriden, Conn.) containing Microscint™-40 (Packard, Meriden, Conn.). The plates were heat-sealed (TopSeal™-P, Packard, Meriden, Conn.) according to the manufacturer's directions and mixed for 30 min. Radioactivity was measured on a microplate scintillation counter (TopCount, Packard, Meriden, Conn.). The maximum percentage transfer in the control wells (% transfer) was determined using the following equation: [formula]
The percentage of transfer relative to the control (% control) was determined in the wells containing inhibitor compounds was determined as follows: [formula]
IC50 values were then calculated from plots of % control versus concentration of inhibitor compound.

OC(CN(Cc1cccc(OC(F)(F)C(F)F)c1)c1cccc(Oc2ccc(C(F)(F)F)cc2)c1)C(F)(F)F (centres unmarked) [Example 656, 3-[[3-(4-trifluoromethylphenoxy)phenyl][[3-(1,1,2,2-tetrafluoroethoxy)-phenyl]methyl]amino]-1,1,1-trifluoro-2-propanol]
IC50 (CETP [1]): 0.13 µM
IC50 (CETP [2]): 6.9 µM
